Values quoted from earlier work, collected in US20100041622A1, “Compositions containing aminoalkanes and aminoalkane derivatives” (priority 2008, published 2010).

Conditions: hydrophilic-lipophilic balance value, known values

**Q.** For “Tocopherol polyethylene glycol succinate”, which HLB is on record?
**A.** 16-18
